# Earlier results as cited in US8912167B2, “Heparin-based compositions and methods for the inhibition of metastasis” (priority 2011, dated 2014).
# Conditions: clinical study for the reversal of heparin anticoagulation therapy, at the doses used
substance,measurement,value
tetra-[5-(L)-lysyl-amino-O-methylsalicylamide],effect on blood pressure,undesirable decrease in blood pressure
